In EP0331471A1, “High molecular weight prodrug derivatives of antiinflammatory drugs” (Larsen, Claus Selch, priority 1988, dated 1989):

Key:
[1] = Hydrolysis (release kinetics) of dextran ester prodrugs in aqueous buffer solution; type: physicochemical; settings: 0.05 M phosphate buffer pH 7.40, 37°C
[2] = Plasma concentration of intact conjugate after intravenous administration to rabbits (HP(SEC)); type: in vivo; settings: 1 ml of 10 % w/v solution, male rabbit
From the text: A HP(SEC) method (High-performance size exclusion chromatography) was used for the determination of the intact dextran prodrugs and the blood concentrations of dextran-naproxen ester prodrugs (compounds in Examples 7 and 28) after intravenous administration in rabbits. […] In case of dextran-naproxen conjugates the column effluent was monitored by fluorescens detection (λex 330 nm, λem 360 nm). The other dextran conjugates were monitored spectrophotometrically in the UV range at an appropriate wavelength. […] Quantitation of the compounds was done by measurements of the areas in relation to those of standards chromatographed under the same conditions. […]
From the plasma concentration versus time profiles plasma half-lives for the T-40 and the T-70 dextran-naproxen ester conjugates of 58 and 90 min, respectively, were calculated (Fig.6). […] Although the amounts of conjugates excreted in the urine have not been measured the observed fine agreement between the experimentally and theoretically determined values of the initial plasma concentration indicates, that the conjugates are eliminated freely through the kidneys after intravenous administration without significant accumulation in the liver and other phagocytically active tissues. […]

## O-[(+)-6-Methoxy-α-methyl-2-naphthaleneactyl]-dextran T-70 [Example 1]
[1]
  t(50%) at pH 7.40 and 37°C: 179 hours
[2]
  plasma half-lives: 90 min

## O-[(+)-6-Methoxy-α-methyl-2-naphthaleneactyl]-dextran T-70 [Example 2]
[1]
  t(50%) at pH 7.40 and 37°C: 177 hours
